# Molecular target: T1, Relaxin receptor 1 (Homo sapiens) (UniProt Q9HBX9)
# T1 sequence (whole entry): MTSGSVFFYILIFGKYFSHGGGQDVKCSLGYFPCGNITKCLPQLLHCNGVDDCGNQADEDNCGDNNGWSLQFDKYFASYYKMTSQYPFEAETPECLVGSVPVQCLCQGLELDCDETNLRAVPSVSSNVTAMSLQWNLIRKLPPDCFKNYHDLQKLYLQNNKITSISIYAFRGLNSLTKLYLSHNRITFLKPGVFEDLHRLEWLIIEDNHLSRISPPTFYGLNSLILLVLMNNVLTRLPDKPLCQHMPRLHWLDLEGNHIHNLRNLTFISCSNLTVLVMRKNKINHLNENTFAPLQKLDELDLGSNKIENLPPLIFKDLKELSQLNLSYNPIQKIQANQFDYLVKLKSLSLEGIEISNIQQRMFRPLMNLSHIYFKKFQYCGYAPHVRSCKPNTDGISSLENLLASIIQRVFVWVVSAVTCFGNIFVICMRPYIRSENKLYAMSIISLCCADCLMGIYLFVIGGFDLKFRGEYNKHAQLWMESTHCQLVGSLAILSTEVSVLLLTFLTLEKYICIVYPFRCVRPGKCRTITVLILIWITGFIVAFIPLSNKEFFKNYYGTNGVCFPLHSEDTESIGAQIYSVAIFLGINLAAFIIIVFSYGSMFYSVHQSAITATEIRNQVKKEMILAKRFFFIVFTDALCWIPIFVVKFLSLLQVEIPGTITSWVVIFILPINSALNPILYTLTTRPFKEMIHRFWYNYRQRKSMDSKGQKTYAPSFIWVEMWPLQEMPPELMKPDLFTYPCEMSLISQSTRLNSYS
# Experiment: Agonist activity at human RXFP1 expressed in human CHO-K1 cells assessed as inhibition of H2 relaxin-induced cAMP accumulation at 10 uM incubated for 30 mins by TR-FRET assay relative to H2 relaxin
# Assay type: functional, cell-based
# Design: scale not given: the % may be the effect or the level left
row,SMILES,Activity
1,COc1cc(C)c2[nH]cc(/C=N/NC(=N)NCCc3ccc(C#N)cc3)c2c1,< 10%
2,COC(=O)c1ccc(CCNC(=N)N/N=C/c2c[nH]c3c(C)cc(OC)cc23)cc1,< 10%
3,COc1cc(C)c2[nH]cc(/C=N/NC(=N)NCCc3ccncc3)c2c1,< 10%
4,COc1ccc(CCNC(=N)N/N=C/c2c[nH]c3c(C)cc(OC)cc23)cc1,< 10%
5,Cc1cc(C#N)cc2c(/C=N/NC(=N)NCCc3ccc(Cl)cc3)c[nH]c12,< 10%
6,CCc1cc(OC)cc2c(/C=N/NC(=N)NCCc3ccc(Cl)cc3)c[nH]c12,< 10%
7,COc1cc(C)c2[nH]cc(/C=N/NC(=N)NCCc3ccc(Cl)cc3)c2c1,< 10%
8,COc1cc(C)c2[nH]cc(/C=N/NC(=N)NCCc3cccs3)c2c1,< 15%
9,CCc1cc(OC)cc2c(/C=N/NC(=N)NCCc3ccc(F)cc3)c[nH]c12,< 10%
10,CCc1cc(OC)cc2c(/C=N/NC(=N)NCCc3cccnc3)c[nH]c12,< 10%
11,COc1cc(C)c2[nH]cc(/C=N/NC(=N)NCCc3ccc(Br)cc3)c2c1,< 10%
12,COc1cc(C)c2[nH]cc(/C=N/NC(=N)NCCc3ccc([N+](=O)[O-])cc3)c2c1,< 10%
13,COc1cc(C)c2[nH]cc(/C=N/NC(=N)NCCc3ccc(F)cc3)c2c1,< 10%
14,COc1cc(C)c2[nH]cc(/C=N/NC(=N)NCCc3ccsc3)c2c1,< 10%
15,COc1cc(C)c2[nH]cc(/C=N/NC(=N)NCCc3cccnc3)c2c1,< 10%
16,CCc1cc(C#N)cc2c(/C=N/NC(=N)NCCc3cccnc3)c[nH]c12,< 15%
17,COc1cc(C)c2[nH]cc(/C=N/NC(=N)NCCc3ccc(N(C)C)cc3)c2c1,< 10%
18,COc1cc(C)c2[nH]cc(/C=N/NC(=N)NCCc3ccccn3)c2c1,< 10%
19,CCc1cc(O)cc2c(/C=N/NC(=N)NCCc3ccc(Cl)cc3)c[nH]c12,< 10%
20,COC(=O)c1ccc(CCNC(=N)N/N=C/c2c[nH]c3c(C)cc(C#N)cc23)cc1,< 10%
21,COc1cc(C)c2[nH]cc(/C=N/NC(=N)NCCc3ccc(I)cc3)c2c1,< 10%
22,CCc1cc(OC)cc2c(/C=N/NC(=N)NCCc3ccc(C#N)cc3)c[nH]c12,< 10%

# — ChEMBL document CHEMBL5032539, “Indole-Containing Amidinohydrazones as Nonpeptide, Dual RXFP3/4 Agonists: Synthesis, Structure-Activity Relationship, and Molecular Modeling Studies” (J Med Chem, 2021)
